{"source": "patent US20080286202A1", "about": "“Method of Diagnosing Prodromal Forms of Diseases Associated With Amyloid Deposition” (priority 2004, published 2008)", "origin": "cited, not measured here", "conditions": "literature values of neuroreceptor-binding radiotracers", "data": [{"smiles": "CO[C@]12CC[C@@]3(C[C@@H]1C(C)(C)O)[C@H]1Cc4ccc(O)c5c4[C@@]3(CCN1CC1CC1)[C@H]2O5", "values": [{"measurement": "f1 (free level in plasma)", "value": 0.30}]}]}
